Amino acid sequences for entries named in this document (tags omitted).
UniProt Q01959, whole entry: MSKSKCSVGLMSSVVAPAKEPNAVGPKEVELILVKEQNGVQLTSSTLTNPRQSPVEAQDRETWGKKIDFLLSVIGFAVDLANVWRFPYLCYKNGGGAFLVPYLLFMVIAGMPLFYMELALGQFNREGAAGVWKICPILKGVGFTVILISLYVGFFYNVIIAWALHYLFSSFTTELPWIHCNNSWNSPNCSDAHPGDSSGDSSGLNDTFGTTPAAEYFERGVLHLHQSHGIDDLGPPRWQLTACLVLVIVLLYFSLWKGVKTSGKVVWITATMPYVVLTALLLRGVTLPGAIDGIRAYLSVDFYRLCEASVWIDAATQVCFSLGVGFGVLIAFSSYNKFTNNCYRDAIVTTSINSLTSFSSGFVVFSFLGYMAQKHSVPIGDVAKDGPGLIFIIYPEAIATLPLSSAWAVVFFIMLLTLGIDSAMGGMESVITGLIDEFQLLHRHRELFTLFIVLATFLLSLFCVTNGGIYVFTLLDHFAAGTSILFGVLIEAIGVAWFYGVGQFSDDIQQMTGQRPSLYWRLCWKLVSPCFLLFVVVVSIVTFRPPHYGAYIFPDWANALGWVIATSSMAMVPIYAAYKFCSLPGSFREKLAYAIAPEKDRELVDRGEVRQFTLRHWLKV

According to ChEMBL document CHEMBL1153544, “Synthesis of 1,1-[1-naphthyloxy-2-thiophenyl]-2-methylaminomethylcyclopropanes and their evaluation as inhibitors of serotonin, norepinephrine, and dopamine transporters” (J Med Chem, 2009):

Target: Sodium-dependent dopamine transporter (Homo sapiens, UniProt Q01959)

Compound	Ki
CNC[C@@H]1C[C@@]1(Oc1cccc2ccccc12)c1cccs1	223 nM
CNC[C@H]1C[C@]1(Oc1cccc2ccccc12)c1cccs1	1910 nM
CNC[C@@H]1C[C@@]1(Oc1cccc2ccccc12)c1cccs1 (racemic)	283 nM
CNC[C@H]1C[C@@]1(Oc1cccc2ccccc12)c1cccs1 (racemic)	586 nM
